In patent US8421457B2, “Methods and systems for magnetically resonating both a subject and a substance administered to the subject” (Applied Magnetics, LLC, priority 2008, dated 2013):

Tested on: fibromyalgia patients
Experiment: Case reports: fibromyalgia, drugs combined with MR treatment
Format: in vivo, human
Details: same subject; thirteen MR treatments within a two-month period
Method: In one example, a person experienced fibromyalgia for a number of years. The subject also experienced insomnia, restless legs, and chronic fatigue. The subject took the drug Naproxen (Aleve). The subject received seven consecutive days of 1 to 1.5 hour treatments.
Their primary complaint was back pain. […] The subject received thirteen treatments within a two-month period. […] Approximately two months after completing their first series of treatment, they began a second regimen of ten treatments within a two-month period.
In a further example, a person at least fifty years old suffered from fibromyalgia for a number of years. […] The subject received daily (when possible) treatments for approximately one year.

Structure (SMILES): CN1CC[C@]23c4c5ccc(O)c4O[C@H]2C(=O)CC[C@H]3[C@H]1C5 [Dilaudid]
- pain level after treatment, first series: 0.5
